Data: doi:10.1101/2022.02.05.479199 (bioRxiv, 2022)

Molecular target: Rad52 (S. cerevisiae) (S. cerevisiae, UniProt P06778)
Assay: AUC

binding result: binds
B1: Replication protein A (Saccharomyces cerevisiae RPA) (complex)
chain 1: MSSVQLSRGDFHSIFTNKQRYDNPTGGVYQVYNTRKSDGANSNRKNLIMISDGIYHMKALLRNQAASKFQSMELQRGDIIRVIIAEPAIVRERKKYVLLVDDFELVQSRADMVNQTSTFLDNYFSEHPNETLKDEDITDSGNVANQTNASNAGVPDMLHSNSNLNANERKFANENPNSQKTRPIFAIEQLSPYQNVWTIKARVSYKGEIKTWHNQRGDGKLFNVNFLDTSGEIRATAFNDFATKFNEILQEGKVYYVSKAKLQPAKPQFTNLTHPYELNLDRDTVIEECFDESNVPKTHFNFIKLDAIQNQEVNSNVDVLGIIQTINPHFELTSRAGKKFDRRDITIVDDSGFSISVGLWNQQALDFNLPEGSVAAIKGVRVTDFGGKSLSMGFSSTLIPNPEIPEAYALKGWYDSKGRNANFITLKQEPGMGGQSAASLTKFIAQRITIARAQAENLGRSEKGDFFSVKAAISFLKVDNFAYPACSNENCNKKVLEQPDGTWRCEKCDTNNARPNWRYILTISIIDETNQLWLTLFDDQAKQLLGVDANTLMSLKEEDPNEFTKITQSIQMNEYDFRIRAREDTYNDQSRIRYTVANLHSLNYRAEADYLADELSKALLA
chain 2: MATYQPYNEYSSVTGGGFENSESRPGSGESETNTRVNTLTPVTIKQILESKQDIQDGPFVSHNQELHHVCFVGVVRNITDHTANIFLTIEDGTGQIEVRKWSEDANDLAAGNDDSSGKGYGSQVAQQFEIGGYVKVFGALKEFGGKKNIQYAVIKPIDSFNEVLTHHLEVIKCHSIASGMMKQPLESASNNNGQSLFVKDDNDTSSGSSPLQRILEFCKKQCEGKDANSFAVPIPLISQSLNLDETTVRNCCTTLTDQGFIYPTFDDNNFFAL
chain 3: MASETPRVDPTEISNVNAPVFRIIAQIKSQPTESQLILQSPTISSKNGSEVEMITLNNIRVSMNKTFEIDSWYEFVCRNNDDGELGFLILDAVLCKFKENEDLSLNGVVALQRLCKKYPEIY
